Measurements: patent US9688664B2, “Modulators of fatty acid amide hydrolase” (JANSSEN PHARMACEUTICA NV, priority 2010, dated 2017)

Sequences of proteins named here, by UniProt entry; tags and fusion partners are left off.
UniProt P97612, whole entry: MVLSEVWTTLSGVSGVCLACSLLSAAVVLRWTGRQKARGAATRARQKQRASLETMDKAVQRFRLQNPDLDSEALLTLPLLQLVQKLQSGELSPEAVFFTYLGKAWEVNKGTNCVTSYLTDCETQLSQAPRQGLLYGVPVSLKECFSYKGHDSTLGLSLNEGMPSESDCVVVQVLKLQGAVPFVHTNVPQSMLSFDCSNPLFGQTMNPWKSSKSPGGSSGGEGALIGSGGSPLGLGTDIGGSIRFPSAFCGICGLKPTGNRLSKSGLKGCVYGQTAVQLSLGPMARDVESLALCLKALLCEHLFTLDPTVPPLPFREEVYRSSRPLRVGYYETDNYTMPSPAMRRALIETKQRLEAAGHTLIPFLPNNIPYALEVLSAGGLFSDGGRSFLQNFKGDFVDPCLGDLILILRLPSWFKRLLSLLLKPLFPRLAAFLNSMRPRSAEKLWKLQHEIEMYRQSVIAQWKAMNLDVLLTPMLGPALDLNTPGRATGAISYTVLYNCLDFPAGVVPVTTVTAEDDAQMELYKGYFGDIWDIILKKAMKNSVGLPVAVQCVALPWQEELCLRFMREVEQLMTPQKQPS
UniProt O00519, whole entry: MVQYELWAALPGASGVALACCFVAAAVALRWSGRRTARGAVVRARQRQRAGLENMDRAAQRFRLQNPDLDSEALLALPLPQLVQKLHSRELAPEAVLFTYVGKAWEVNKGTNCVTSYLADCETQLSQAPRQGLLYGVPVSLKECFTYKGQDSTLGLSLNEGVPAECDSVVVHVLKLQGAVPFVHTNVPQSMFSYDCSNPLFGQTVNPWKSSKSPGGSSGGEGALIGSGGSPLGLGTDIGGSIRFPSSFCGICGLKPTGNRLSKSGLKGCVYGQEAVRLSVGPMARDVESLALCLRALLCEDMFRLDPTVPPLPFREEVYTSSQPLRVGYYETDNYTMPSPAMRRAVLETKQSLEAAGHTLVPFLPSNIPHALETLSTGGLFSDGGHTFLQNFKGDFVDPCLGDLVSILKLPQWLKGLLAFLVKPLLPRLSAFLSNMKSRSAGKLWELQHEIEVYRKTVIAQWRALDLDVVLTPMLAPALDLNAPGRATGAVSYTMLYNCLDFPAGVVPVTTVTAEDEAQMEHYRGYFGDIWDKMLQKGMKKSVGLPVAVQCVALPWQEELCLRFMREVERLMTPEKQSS

Key:
[1] = target: rat FAAH (Rattus norvegicus (Rat), UniProt P97612); experiment: Assay Method 2: rat FAAH assay (3H-anandamide hydrolysis in cell homogenate); type: biochemical; conditions: average of results
Experimental: A. Transfection of Cells with Rat FAAH
(§1) A 10-cm tissue culture dish with a confluent monolayer of SK-N-MC cells was split 2 days (d) prior to transfection. Using sterile technique, the media was removed and the cells were detached from the dish by the addition of trypsin. One fifth of the cells were then placed onto a new 10-cm dish. Cells were grown in a 37° C. incubator with 5% CO2 in Minimal Essential Media Eagle with 10% Fetal Bovine Serum. After 2 d, cells were approximately 80% confluent. These cells were removed from the dish with trypsin and pelleted in a clinical centrifuge. The pellet was re-suspended in 400 μL complete media and transferred to an electroporation cuvette with a 0.4 cm gap between the electrodes. Supercoiled rat FAAH cDNA (1 μg) was added to the cells and mixed. The voltage for the electroporation was set at 0.25 kV, and the capacitance was set at 960 μF. After electroporation, the cells were diluted into complete media (10 mL) and plated onto four 10-cm dishes. Because of the variability in the efficiency of electroporation, four different concentrations of cells were plated. The ratios used were 1:20, 1:10, and 1:5, with the remainder of the cells being added to the fourth dish. The cells were allowed to recover for 24 h before adding the selection media (complete media with 600 μg/mL G418). After 10 d, dishes were analyzed for surviving colonies of cells. […]

[2] = target: FAAH (Homo sapiens (Human), UniProt O00519); experiment: Assay Method 1: human FAAH assay (3H-anandamide hydrolysis in cell homogenate); type: biochemical; conditions: average of results
Experimental: A. Transfection of Cells with Human FAAH
as §1, with “Supercoiled human” for “Supercoiled rat”

O=C(Nc1cccnc1)N1CCN(Cc2ccc3c(c2)OC(F)(F)O3)CC1 [Comparator Compound]
IC50 [1]: 450 nM
IC50 [2]: 340 nM
